{"source": "patent US11458127B2", "about": "“Methods of treating brain tumors using combination therapy” (SERVIER PHARMACEUTICALS LLC, priority 2017, dated 2022)", "system": "orthotopic human neurosphere-derived grade III glioma cells carrying an IDH1 R132H mutation (TS603 cell line)", "assay": "Example 2: ivosidenib and focal radiation in orthotopic IDH1m glioma mouse model, survival end point", "type": "in vivo, mice", "conditions": "for % ILS (% increase in lifespan): versus median control lifespan", "key": {"[1]": {"conditions": "combination therapy with focal radiation, Groups 4 and 5"}}, "data": [{"compound": "N#Cc1ccnc(N2C(=O)CC[C@H]2C(=O)N(c2cncc(F)c2)[C@H](C(=O)NC2CC(F)(F)C2)c2ccccc2Cl)c1", "note": "[Ivosidenib, (S)—N—((S)-1-(2-Chlorophenyl)-2-(3,3-difluorocyclobutylamino)-2-oxoethyl)-1-(4-cyanopyridin-2-yl)-N-(5-fluoropyridin-3-yl)-5-oxopyrrolidine-2-carboxamide]", "values": [{"measurement": "Median Lifespan", "setting": "Group 3, ivosidenib alone 150 mg/kg PO Q12H, from day of first treatment", "value": 21, "unit": "days"}, {"measurement": "% ILS (% increase in lifespan)", "setting": "Group 3, ivosidenib alone", "value": 0, "unit": "%"}, {"measurement": "Median Lifespan", "setting": "Group 4, ivosidenib 150 mg/kg PO Q12H + focal radiation (10 Gy total), simultaneous", "value": 45, "unit": "days"}, {"measurement": "Median Lifespan", "setting": "Group 5, focal radiation (10 Gy total) then ivosidenib 150 mg/kg PO Q12H, sequential", "value": 42, "unit": "days"}, {"measurement": "% ILS (% increase in lifespan)", "setting": "Group 5, focal radiation then ivosidenib, sequential", "value": 100, "unit": "%"}, {"measurement": "Increase in lifespan (in words)", "setting": "[1]", "value": "substantial increases in lifespan"}, {"measurement": "Increase in lifespan compared to Focal Radiation alone (Group 2)", "setting": "[1]", "value": "comparable increases in lifespan"}, {"measurement": "Antagonism of combination of ivosidenib and radiation therapy", "setting": "combination with radiation therapy, lifespan", "value": "no antagonism in vivo"}]}]}
